Experimental data: paper PMC8219695 (Nature Communications, 2021)

Amino acid sequences for entries named in this document (tags omitted).
UniProt P32300, whole entry: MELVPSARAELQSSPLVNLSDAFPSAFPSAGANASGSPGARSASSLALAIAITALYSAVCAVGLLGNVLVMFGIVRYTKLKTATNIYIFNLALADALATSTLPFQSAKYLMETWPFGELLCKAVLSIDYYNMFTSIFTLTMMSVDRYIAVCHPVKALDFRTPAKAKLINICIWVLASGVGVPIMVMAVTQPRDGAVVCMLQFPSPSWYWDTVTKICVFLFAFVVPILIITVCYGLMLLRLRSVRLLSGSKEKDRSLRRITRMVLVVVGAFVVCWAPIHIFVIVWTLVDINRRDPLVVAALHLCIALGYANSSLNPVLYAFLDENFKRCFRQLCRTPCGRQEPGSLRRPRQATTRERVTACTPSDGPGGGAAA
UniProt P41143, whole entry: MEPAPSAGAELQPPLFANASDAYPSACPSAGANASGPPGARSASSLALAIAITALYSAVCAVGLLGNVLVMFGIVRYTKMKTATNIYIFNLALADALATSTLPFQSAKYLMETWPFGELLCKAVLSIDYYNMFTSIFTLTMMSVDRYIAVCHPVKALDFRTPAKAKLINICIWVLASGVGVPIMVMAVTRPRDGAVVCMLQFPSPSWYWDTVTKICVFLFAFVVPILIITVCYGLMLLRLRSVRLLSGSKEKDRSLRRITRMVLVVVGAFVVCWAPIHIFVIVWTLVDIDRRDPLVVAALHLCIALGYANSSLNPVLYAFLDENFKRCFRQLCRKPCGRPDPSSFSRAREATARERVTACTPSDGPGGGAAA

Columns and labels:
Assay type in all cases: cell-based
[1] = target: T1, mDOR (Mus musculus, UniProt P32300); assay: CAMYEL BRET antagonism assay at mDOR (inhibition of DPDPE); details: plotted at Log[drug] (M) -13, individual replicates, Supplementary Figure 9B source data
T1 construct: expressed in transfected cells

[2] = target: hDOR (Homo sapiens, UniProt P41143); assay: CAMYEL BRET cAMP agonist assay at hDOR; details: single replicate values, Supplementary Figure 7A
[3] = target: T1, mDOR; assay: CAMYEL BRET cAMP agonist assay at mDOR; details: single replicate values, Supplementary Figure 7B

DPDPE
Response to EC80 DPDPE alone at the mDOR (raw signal) [1]: 0.2216 and 0.2105 and 0.2076 and 0.126 and 0.1112 and 0.1106 and 0.05315 and 0.03581 and 0.04465 and 0.205 and 0.2119 and 0.2059 and 0.121 and 0.1155 and 0.112 and 0.06785 and 0.05977 and 0.04072 and 0.2098 and 0.2092 and 0.2107 and 0.1208 and 0.1136 and 0.1212 and 0.06027 and 0.04949 and 0.05384
Agonist activity of 7OH analogs at hDOR ([2]; Log[drug] (M) -5): 108.464 and 116.733 and 109.409 and 107.309 and 104.622 and 104.376 and 108.121 and 116.428 and 106.246
Agonist activity of 7OH analogs at hDOR ([2]; Log[drug] (M) -6): 107.84 and 82.4366 and 97.7793 and 99.1324 and 98.9503 and 90.0975 and 107.763 and 95.4669 and 100.614
Agonist activity of 7OH analogs at hDOR ([2]; Log[drug] (M) -7): 94.8616 and 92.4318 and 96.8308 and 106.185 and 103.126 and 93.534 and 95.6914 and 92.7933 and 91.4728
Agonist activity of 7OH analogs at hDOR ([2]; Log[drug] (M) -8): 91.1521 and 73.5219 and 77.5788 and 74.9379 and 76.598 and 76.1993 and 70.9318 and 69.6207 and 90.2955
Agonist activity of 7OH analogs at hDOR ([2]; Log[drug] (M) -9): 42.5842 and 37.0905 and 48.5956 and 40.7398 and 32.6551 and 43.8472 and 51.7146 and 40.9404 and 43.2179
Agonist activity of 7OH analogs at hDOR ([2]; Log[drug] (M) -10): 11.4658 and 18.4337 and 23.7987 and 13.5265 and 2.85 and 5.566 and 4.73 and 10.4421 and 11.1259
Agonist activity of 7OH analogs at hDOR ([2]; Log[drug] (M) -11): 6.089 and 3.346 and 1.897 and 10.798 and 3.8891 and 0.8973 and 3.181 and -6.329 and 3.148
Agonist activity of 7OH analogs at hDOR ([2]; Log[drug] (M) -13): -3.358 and -1.52 and 4.878 and -0.5328 and -3.5715 and 4.104 and 5.632 and 2.365 and -3.638
Agonist activity of 7OH analogs at mDOR ([3]; Log[drug] (M) -5): 119.19 and 109.156 and 98.1208 and 104.346 and 101.157 and 103.483 and 100.727 and 108.147 and 112.465
Agonist activity of 7OH analogs at mDOR ([3]; Log[drug] (M) -6): 101.655 and 79.1185 and 100.475 and 106.537 and 91.4269 and 94.0755 and 101.126 and 96.8592 and 102.652
Agonist activity of 7OH analogs at mDOR ([3]; Log[drug] (M) -7): 95.0806 and 91.0111 and 103.453 and 93.961 and 98.0117 and 103.021 and 95.8382 and 97.1021 and 100.993
Agonist activity of 7OH analogs at mDOR ([3]; Log[drug] (M) -8): 105.195 and 94.1471 and 96.3086 and 90.4519 and 89.1321 and 103.669 and 83.6346 and 78.8229 and 100.044
Agonist activity of 7OH analogs at mDOR ([3]; Log[drug] (M) -9): 46.9294 and 45.7767 and 76.3287 and 53.6511 and 52.3859 and 73.0815 and 60.7072 and 52.0168 and 72.5939
Agonist activity of 7OH analogs at mDOR ([3]; Log[drug] (M) -10): 29.7658 and 40.9166 and 50.1794 and 8.654 and 16.754 and 18.7171 and 18.4805 and 17.9456 and 21.8293
Agonist activity of 7OH analogs at mDOR ([3]; Log[drug] (M) -11): 16.2882 and 8.249 and 12.8768 and 11.2547 and 11.0168 and -2.748 and 1.65 and -1.714 and 0.06337
Agonist activity of 7OH analogs at mDOR ([3]; Log[drug] (M) -13): 6.062 and -10.7876 and 4.726 and -0.597 and -1.448 and 2.045 and 1.667 and -1.765 and 4.269

Several values for one entry are separate records, joined by “and”; a condition that tells them apart may be missing. Equal entries are not always repeated.
